Reference: US8735406B2, “8-oxodihydropurine derivative” (Dainippon Sumitomo Pharma Co., Ltd., priority 2009, dated 2014)

By UniProt entry, the sequences of proteins in these tests, tags left out.
UniProt P97612, whole entry: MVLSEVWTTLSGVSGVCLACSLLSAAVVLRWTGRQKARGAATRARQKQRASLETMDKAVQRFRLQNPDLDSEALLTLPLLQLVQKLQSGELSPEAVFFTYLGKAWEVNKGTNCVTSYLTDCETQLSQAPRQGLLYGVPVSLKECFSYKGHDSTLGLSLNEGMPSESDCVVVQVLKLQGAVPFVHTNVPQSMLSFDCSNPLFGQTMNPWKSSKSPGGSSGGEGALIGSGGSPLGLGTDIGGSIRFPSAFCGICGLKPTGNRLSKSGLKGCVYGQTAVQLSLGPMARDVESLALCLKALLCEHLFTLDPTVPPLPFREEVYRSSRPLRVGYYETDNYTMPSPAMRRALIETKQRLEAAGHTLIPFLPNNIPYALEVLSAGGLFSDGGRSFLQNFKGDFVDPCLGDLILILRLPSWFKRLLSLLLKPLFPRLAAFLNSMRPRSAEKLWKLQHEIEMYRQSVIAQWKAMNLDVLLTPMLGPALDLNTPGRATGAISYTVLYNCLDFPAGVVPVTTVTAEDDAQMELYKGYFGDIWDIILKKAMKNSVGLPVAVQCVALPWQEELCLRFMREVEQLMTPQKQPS

Molecular target: FAAH (Rattus norvegicus, UniProt P97612)
Assay: Determination of FAAH inhibitory activity in rat (rat brain membrane preparations, [3H]-anandamide hydrolysis)

- FAAH Inhibition, Inhibition Rate at 100 nM (100 nM test substance): 76%
- IC50 (read-out: FAAH Inhibition IC50, test substance 0.1 nM to 1 μM): 39 nM
Structure (SMILES): Cn1c(=O)n(C(=O)N2CCC2)c2nc(-c3ccc(C(F)(F)F)cc3)ncc21
